This passage reports activity change, positive = activation results from PubChem BioAssay AID504466 (National Center for Advancing Translational Sciences (NCATS), 2011).

SMILES strings stand for the structures. The entries are a selection whose mix differs from that of the whole data set. Inconclusive results are not listed. Activity calls are given as the source filed them. Calls come from the whole dose curve; as a rule, active = well fitted activation curve with a large enough effect; inconclusive = small, poorly fitted or top-dose-only effect; inactive = no such curve, though single readings can be large or run the other way.

The assay can be described thus: qHTS screen for small molecules that induce genotoxicity in human embryonic kidney (HEK293T) cells expressing luciferase-tagged ELG1. Note: % of control where 0% means no effect; nearly all actives have a fitted effect of over 60% in size. The settings on record: HEK293T ELG1-luciferase reporter, luminescence, 16 h; at 46 µM (top of the series). An excerpt: NIH Molecular Libraries Probe Production Network [MLPCN] NIH Chemical Genomics Center [NCGC] MLPCN Grant: 1 R03 MH092164-01 Assay Provider: Kyungjae Myung, NHGRI, NIH Keywords: MLPCN, qHTS, NCGC, genotoxicity, cancer Assay Overview: Cancer cells divide rapidly compared to normal cells in the body. During cell division, cancer cells need to duplicate their genome by DNA replication. The failure of genome duplication leads to cancer cells' death. Therefore, inhibitors of DNA replication could specifically kill cancer cells. Based on this concept, many chemotherapeutic agents were developed and have been used to treat cancer patients. However, there are a limited number of agents available in the clinical setting, and some of those that do exist have low efficacy and severe side effects. Therefore, if we can find the compounds that effectively block DNA replication either by directly damaging DNA or by inhibiting other cellular mechanisms, the options for cancer treatment will be broadened. With this in mind, we developed a quantitative high-throughput ELG1-luciferase reporter gene assay. Since the level of human ELG1 protein is enhanced in response to genetic stresses, increases in luciferase activity can be used to identify compounds that cause genetic stress.
Assay Protocol Summary: For genotoxicity screening, 2,000 cells in 5 uL/well were dispensed into white, solid-bottom 1536-well plates using a solenoid-based dispenser. Following transfer of 23 nL compound or DMSO vehicle by a pin tool, the plates were incubated 16 hr at 37 °C and 5% CO2. 5 ul ONE-Glo (Promega) was then added to each plate and following a 30 min incubation at room temperature, luciferase activity was quantified on a ViewLux CCD-based plate reader.
In general terms: In qHTS, concentration-response curves come from the screen itself.
With `Cc1ccc(OP(=O)(Nc2nccs2)Oc2ccc(C)cc2)cc1`, the activity change, positive = activation is inactive: 0.497%.

`COc1ccccc1OP(=O)(Nc1ccc(C)cn1)Oc1ccccc1OC`: the activity change, positive = activation is inactive: -4.71%.

For the molecule `CN1CCCC(OC(=O)C(c2ccccc2)c2ccccc2)C1` (stereo not given), the activity change, positive = activation was inactive: -0.0281%.

Take `Clc1ccc(Cl)c(NC2=NCC(CBr)S2)c1` (stereo not given): the activity change, positive = activation is inactive: -0.546%.

As to `CC(=O)c1ccc(N2CC2c2ccncc2)cc1` (stereo not given), the activity change, positive = activation is inactive: -0.609%.

Regarding `C[C@H]1OP(=O)(Oc2ccccc2)C[C@@H]2O[C@@H]21` (stereo not given in full), the activity change, positive = activation is inactive: -2.58%.

Regarding `C[C@@H]1C=CCP(=O)(Oc2ccccc2)O1` (stereo not given in full), the activity change, positive = activation was inactive: 3.36%.

For `Cc1ccccc1CN(C)C(=O)COC(=O)C(O)(c1ccccc1)c1ccccc1`, the activity change, positive = activation was inactive: -2.17%.

Take `CC(=O)Nc1ccc(Oc2c([N+](=O)[O-])cc([N+](=O)[O-])cc2[N+](=O)[O-])cc1`: the activity change, positive = activation is inactive: 1.75%.

As to `CC(=O)Nc1ccc([As](=O)(O)O)c(O)c1`, the activity change, positive = activation is inactive: -2.1%.

On to `CCOc1ccc(C2=NCC(CBr)S2)cc1` (stereo not given), for which the activity change, positive = activation is inactive: 11.7%.

Regarding `CC(C)(C)C(=O)NC(Sc1ccccc1)C(Cl)(Cl)Cl` (stereo not given), the activity change, positive = activation was inactive: 2.04%.

Take `Cc1ccc(OP(=O)(Nc2ccccn2)Oc2ccc(C)cc2)cc1`: the activity change, positive = activation is inactive: -7.49%.

In the case of `CC(=O)NC(SC(=S)N(CC(C)C)CC(C)C)C(Cl)(Cl)Cl` (stereo not given), the activity change, positive = activation is inactive: -0.76%.

Consider `COC(=O)c1cc2c(s1)N=C(c1ccccc1)N(C)P2(=O)N1CCOCC1` (stereo not given), for which the activity change, positive = activation was inactive: -1.06%.

As for `CCC(=O)N1C2C3N(C(=O)CC)C1C1N(C(=O)CC)C(C(N1C(=O)CC)N3C(=O)CC)N2C(=O)CC`, the activity change, positive = activation is inactive: 0.078%.

Turning to `O=C(OC1CN2CCC1CC2)c1ccccc1` (stereo not given), the activity change, positive = activation is inactive: 0.0896%.

With `O=c1c2cc([N+](=O)[O-])ccc2[nH]c2c([N+](=O)[O-])cc([N+](=O)[O-])cc12`, the activity change, positive = activation was inactive: -9.69%.

With `CN(C)C(=O)Oc1noc2ccccc12`, the activity change, positive = activation was inactive: 0.445%.

In the case of `CC(NC(=O)COC(=O)C(O)(c1ccccc1)c1ccccc1)c1ccccc1` (stereo not given), the activity change, positive = activation was inactive: 0.499%.

As to `Cc1ccccc1OP(=O)(Nc1ccccn1)Oc1ccccc1C`, the activity change, positive = activation was inactive: -8.48%.

`O=C(NC1CCS(=O)(=O)C1)NP(=S)(Oc1ccccc1)Oc1ccccc1` (stereo not given): the activity change, positive = activation is inactive: -1.63%.

For `CCNC(=S)/N=C(\N)N[N+](=O)[O-]`, the activity change, positive = activation was inactive: -1.64%.

Turning to `CCOC(=O)NC(Sc1ccccc1)C(Cl)(Cl)Cl` (stereo not given), the activity change, positive = activation is inactive: 1.51%.

For the molecule `Cc1ccc(NP(=O)(Oc2cccc(C)c2)Oc2cccc(C)c2)nc1`, the activity change, positive = activation was inactive: 5.07%.

Consider `c1ccc(-c2nn[nH]n2)c(-c2nn[nH]n2)c1`, for which the activity change, positive = activation was inactive: 5.13%.

Consider `O=[N+]([O-])c1ncn(CCn2cnc([N+](=O)[O-])n2)n1`, for which the activity change, positive = activation is inactive: -2.69%.

On to `CC(=O)NC(SC(=S)N(C)C)C(Cl)(Cl)Cl` (stereo not given), for which the activity change, positive = activation is inactive: 0.507%.

With `O=[N+]([O-])c1ccc(O)c(/C=N/Nc2ccc([N+](=O)[O-])cc2[N+](=O)[O-])c1`, the activity change, positive = activation is inactive: -13.5%.

Turning to `O=[As](O)(c1ccccc1)c1ccc(O)cc1`, the activity change, positive = activation is inactive: -1.54%.

For `C(Cc1nn[nH]n1)Cc1nn[nH]n1`, the activity change, positive = activation is inactive: 1.53%.

As for `Nc1ccc([As](=O)(O)c2ccc([N+](=O)[O-])cc2)cc1`, the activity change, positive = activation was inactive: 0.26%.

As to `O=C(OC1CN2CCC1CC2)c1cccc(Cl)c1` (stereo not given), the activity change, positive = activation is inactive: 0.923%.

Regarding `CN(C)C1(CNC(=O)c2ccc(Cl)c(S(N)(=O)=O)c2)CCCCC1`, the activity change, positive = activation was inactive: 1.8%.

Regarding `O=P(Nc1ccccn1)(c1ccc(Br)cc1)c1ccc(Br)cc1`, the activity change, positive = activation is inactive: -8.43%.

For `C[C@H]1OP(=O)(Oc2ccccc2)[C@H](O)[C@H](O)[C@H]1N=[N+]=[N-]` (stereo not given in full), the activity change, positive = activation is inactive: 0.927%.

Turning to `O=P(Nc1nc2ccccc2s1)(c1ccccc1)c1ccccc1`, the activity change, positive = activation is inactive: -1.93%.

As for `O=P(Nc1nccs1)(c1ccccc1)c1ccccc1`, the activity change, positive = activation was inactive: -0.14%.

Take `CC(C)C(=O)NC(Sc1ccccc1)C(Cl)(Cl)Cl` (stereo not given): the activity change, positive = activation is inactive: -1.62%.

For the molecule `c1nnnn1CCn1cnnn1`, the activity change, positive = activation is inactive: 1.33%.
